This is an account of results in patent publication US6015808A, “Synthesis of pharmaceutical compositions with lactams and β-lactams/oxo thia azabicyclo compounds” (priority 1995, dated 2000).

A short description of one data set: oral absorption. The data set is classed as in vivo.

Entries after “also recorded” stand apart in the source; their conditions may differ.

Consider hamycin, for which, in “oral absorption”, the oral absorption entry was “poorly absorbed orally”. For the same substance, under “methanol, alcohols, ethyl acetate, other solvents”, the “solubility in methanol, alcohol, other solvents” value is given as “soluble in alcohol”. Besides, where the note is “water”, the solubility in water result was “insoluble in water; also recorded: not water soluble”.
